{"source": "patent US12427179B2", "about": "“Compositions and methods for diagnosis and treatment of neurodegenerative diseases” (EPITRACKER, INC., priority 2019, dated 2025)", "system": "LPS: Venular endothelial cells, peripheral blood mononuclear cells (TLR4 ligand)", "assay": "BioMAP LPS system", "format": "cell-based, human", "details": "first system (LPS); 20 μM; 24 hours", "method": "Anti-inflammatory phenotypic profiling was conducted across 12 human primary cell-based systems as part of DiscoverX's BioMAP Diversity Plus program. These systems are designed to model complex human tissue and disease biology of the vasculature, skin, lung, and inflammatory tissues. Quantitative measurements of biomarker activities across this broad panel were used to assess each biochemical's anti-inflammatory activity at four concentrations ([…] and 2.2, 6.7 and 20 μM). […] Protein-based biomarkers from activated cell systems were measured and compared with controls. […]\nThe Diversity PLUS panel allows test agent characterization in an unbiased way across a broad set of systems modeling various human disease states. […] Quantitative measurements of 148 biomarker activities across this broad panel, along with comparative analysis of biological activities from known bioactive agents, were used to predict and compare the efficacy and function of each selected compound at selected concentrations (6.7 and/or 20 μM). […]\nEach test agent generates a signature BioMAP profile that is created from the changes in protein biomarker readouts within individual system environments. Biomarker readouts (7-17 per system) are selected for therapeutic and biological relevance, are predictive for disease outcomes or specific drug effects and are validated using agents with known mechanism of action (MoA). […]", "data": [{"smiles": "O=C(O)c1cc(O)c2cccc(O)c2n1", "note": "[xanthurenate]", "values": [{"measurement": "TNF-α, log (10)-transformed ratio for drug-treated samples over vehicle controls", "value": "−0.19 log (10)"}]}]}
